In the experiment the target is Nociceptin receptor (Rattus norvegicus, UniProt P35370).

Chains of the proteins cited; added tags and fusions are not shown. Lines headed by an entry give the natural chain unless they say otherwise; changes in a name come on top.
UniProt P35370: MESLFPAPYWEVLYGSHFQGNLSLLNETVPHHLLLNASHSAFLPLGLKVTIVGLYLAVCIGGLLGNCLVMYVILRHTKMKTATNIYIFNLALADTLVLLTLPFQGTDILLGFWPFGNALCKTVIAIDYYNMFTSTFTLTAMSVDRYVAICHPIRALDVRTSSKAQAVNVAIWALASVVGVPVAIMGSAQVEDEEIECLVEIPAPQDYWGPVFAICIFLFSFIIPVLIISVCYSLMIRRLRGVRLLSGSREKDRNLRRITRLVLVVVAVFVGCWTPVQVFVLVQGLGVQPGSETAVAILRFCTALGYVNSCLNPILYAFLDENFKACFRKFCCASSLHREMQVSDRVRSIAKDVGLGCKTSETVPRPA

On to `CC(C)C[C@H](NC(=O)[C@H](CCCCN)NC(=O)[C@H](CCCN=C(N)N)NC(=O)[C@H](C)NC(=O)[C@H](CO)NC(=O)[C@H](CCCCN)NC(=O)[C@H](CCCN=C(N)N)NC(=O)[C@H](C)NC(=O)CNC(=O)[C@@H](NC(=O)[C@H](Cc1ccccc1)NC(=O)CNC(=O)CNC(=O)[C@@H](N)Cc1ccccc1)[C@@H](C)O)C(=O)N[C@@H](C)C(=O)N[C@@H](CC(N)=O)C(=O)N[C@@H](CCC(N)=O)C(=O)O` [OFQ 1-17], for which the affinity, expressed as Ki, was 0.38 nM.

The term Ki denotes a dissociation constant, usually derived from enzyme kinetics or from competition with a known ligand. A lower Ki goes with a stronger hold on the target.

Source of the values: BindingDB's records for doi:10.1016/s0891-0618(03)00032-2 (University of Michigan, 2003).
